Experimental data: patent US10040791B2, “Isoxazole derivative as mutant isocitrate dehydrogenase 1 inhibitor” (Daiichi Sankyo Company, Limited, priority 2014, dated 2018)
pIC50: −log10 of the molar value.

By UniProt entry, the sequences of proteins in these tests, tags left out.
UniProt O75874, whole entry R132C: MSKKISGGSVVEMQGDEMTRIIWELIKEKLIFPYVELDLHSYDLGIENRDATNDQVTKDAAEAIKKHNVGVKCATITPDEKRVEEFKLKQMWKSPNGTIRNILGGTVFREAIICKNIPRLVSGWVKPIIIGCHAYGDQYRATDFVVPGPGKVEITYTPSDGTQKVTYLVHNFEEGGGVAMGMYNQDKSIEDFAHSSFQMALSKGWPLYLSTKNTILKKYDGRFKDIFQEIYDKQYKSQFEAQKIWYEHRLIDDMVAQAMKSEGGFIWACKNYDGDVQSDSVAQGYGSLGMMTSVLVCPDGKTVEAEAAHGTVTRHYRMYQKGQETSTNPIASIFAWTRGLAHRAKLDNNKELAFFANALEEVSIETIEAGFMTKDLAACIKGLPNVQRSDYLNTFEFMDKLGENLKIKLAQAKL

Columns and labels:
[1] = target: IDH1R132C (Homo sapiens (Human), UniProt O75874, R132C); assay: Inhibitory activity against IDH1R132C enzyme (NADPH detection, WST-8); assay type: biochemical; conditions: read-out: Test Example 1 IDH1 R132C IC50, 10 nM, residual NADPH detected with WST-8
[2] = test system: HT1080 xenografted mice (IDH1R132C); assay: 2-HG production inhibitory activity using HT1080 xenografted mice; assay type: in vivo, mouse
[3] = target: HT-1080 cells expressing IDH1R132C (UniProt O75874); assay: 2-HG production inhibitory activity using HT1080 cell; assay type: cell-based, human; conditions: read-out: Test Example 3 IC50

Compound: C=CC(=O)N1CCC(c2onc(-c3c(F)cc(Cl)cc3Cl)c2C(=O)n2cc(C)c3c(/C=C/C(=O)O)cccc32)CC1
- pIC50 [1]: 6.77
- Test Example 5 Ratio (%) [2]: 18%
- pIC50 [3]: 7.96
